For assay [1], the target named is BCL-2 (binding to BAK peptide) (Homo sapiens, UniProt P10415). Description: SPR (Biacore) solution inhibition assay, BCL-2 binding to immobilized BAK peptide. The following applies: read-out: BCL2_SPR IC50 BAK; biotinylated BAK peptide surface, 56 nM BCL-2, 25° C.; range = high and low IC50 values from multiple experiments. An excerpt: (§1) The present method includes utility of a Surface plasmon resonance (SPR)-based biosensor (Biacore™′ GE Healthcare, Uppsala, Sweden) to characterize BCL-2 inhibitors.
(§2) Biacore™ utilizes the phenomenon of surface plasmon resonance (SPR) to detect and measure binding interactions. In a typical Biacore experiment, one of the interacting molecules (ligand) is immobilized on a flexible dextran matrix while the interacting partner (analyte) is allowed to flow across that surface. A binding interaction results in an increase in mass on the sensor surface and a corresponding direct change in the refractive index of the medium in the vicinity of the sensor surface. Changes in refractive index or signal are recorded in resonance units (R.U.) Signal changes due to association and dissociation of complexes are monitored in a non-invasive manner, continuously and in real-time, the results of which are reported in the form of a sensorgram.
(§3) The SPR assay is configured to examine solution inhibition of BCL-2 binding to peptide derivatized sensor surfaces to generate IC50 values as a measure of inhibitor potency.
(§4) Biacore™ A100 (GE Healthcare, Uppsala, Sweden) was used to conduct all experiments reported herein. Sensor surface preparation and all interaction analyses experiments were performed at 25° C. Reagents were purchased from GE Healthcare. Running buffer containing 10 mM Hepes, pH7.4, 150 mM sodium chloride, 1.25 mM Dithiothreitol, 3% Dimethyl sulfoxide and 0.05% polysorbate 20 were utilized throughout all analyses.
(§5) Biotinylated BAK, BAD and NOXA peptides were diluted to 10 nM in running buffer and captured onto a sensor surface pre-derivatized with streptavidin (sensor chip SA) to peptide surface densities in the range 50-100 R.U. Peptide captured surfaces were blocked with 500 μM PEO2-Biotin.
(§6) Interaction analyses were performed by first equilibrating each sample within a 6 point three fold compound dilution series in the range 16 μM to […] with 56 nM BCL-2 for one hour during instrument start-up procedures. […]
On the technique in general: SPR reads the build-up and loss of mass on a sensor chip optically.

Protein sequences, listed by entry. Tags and fused reporters are not part of them.
UniProt P10415, whole entry: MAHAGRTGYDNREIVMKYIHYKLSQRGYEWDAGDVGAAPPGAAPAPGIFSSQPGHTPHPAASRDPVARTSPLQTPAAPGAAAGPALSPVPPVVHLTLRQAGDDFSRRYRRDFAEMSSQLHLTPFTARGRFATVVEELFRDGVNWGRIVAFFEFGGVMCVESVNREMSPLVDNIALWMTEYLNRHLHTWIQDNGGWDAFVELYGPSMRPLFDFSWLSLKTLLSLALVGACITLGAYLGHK

Assay [2] has as its target BCL-2 (binding to BAD peptide) (Homo sapiens, UniProt P10415). Description: SPR (Biacore) solution inhibition assay, BCL-2 binding to immobilized BAD peptide. The following applies: read-out: BCL2_SPR IC50 BAD; biotinylated BAD peptide surface, 56 nM BCL-2, 25° C.; range = high and low IC50 values from multiple experiments.
From the text: as §1, §2, §3, §4, §5, §6

Molecules are shown by their SMILES. Several values for one entry are separate records, joined by “and”; a condition that tells them apart may be missing. Equal entries are not always repeated.

With `CCCCN(CCCC)C(=O)c1cc(C)n(-c2ccc(NC(=O)Cc3ccc4ccccc4c3)cc2C(=O)N2Cc3ccccc3C[C@H]2CO)n1`, the IC50 (in general, the concentration needed to halve the response being measured) is 0.0392 to 0.0394 µM and 0.0342 µM and 0.0306 to 0.0377 µM in assay [1]; 0.0434 to 0.0435 µM and 0.0391 µM and 0.0346 to 0.0361 µM in assay [2].
For `CCCCN(CCCC)C(=O)c1cc(C)n(-c2ccc(NC(=O)COC34CC5CC(CC(C5)C3)C4)cc2C(=O)N2Cc3ccccc3C[C@H]2CO)n1`, the half-inhibitory concentration (IC50) was in the range of 0.459 to 0.476 µM in assay [1] and 0.601 to 0.606 µM in assay [2].
As to `CCCCN(CCCC)C(=O)c1cc(C)n(-c2ccc(NC(=O)c3ccc4c(c3)S(=O)(=O)c3ccccc3C4=O)cc2C(=O)N2Cc3ccccc3C[C@H]2CO)n1`, the IC50 was 0.361 to 0.369 µM in assay [1] and 0.643 µM in assay [2].

These data come from US20140357633A1, “COMPOUNDS FOR INHIBITING THE INTERACTION OF BCL2 WITH BINDING PARTNERS” (NOVARTIS AG, priority 2011, published 2014).
